According to PubChem BioAssay AID652163 (Broad Institute, 2013):
This is a selection; strong and weak results do not stand in their true shares. Some structures show a salt or complex split into parts, the way the source records it. Active and inactive are the calls of the source.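 How the source made its calls: active means mean inhibition of at least 70% across replicates, with every replicate also reaching that level; inconclusive means mean inhibition reaches 70% but some replicates fall short; inactive means mean inhibition below 70%.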

By UniProt entry, the sequences of proteins in these tests, tags left out.
UniProt P26447, whole entry: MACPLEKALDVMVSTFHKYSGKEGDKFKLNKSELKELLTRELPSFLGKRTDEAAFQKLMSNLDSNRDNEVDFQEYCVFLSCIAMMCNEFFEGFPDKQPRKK

biological target: Protein S100-A4 (Homo sapiens) (UniProt P26447); assay: inhibitors of S100A4-myosin IIA peptide binding, primary screen, biochemical, fluorescence polarization, TAMRA-MyoIIA peptide (AID 652163); conditions: at 10.7 µM, stronger effect = higher value

| Structure (SMILES) | inhibition |
| --- | --- |
| CCN(CC)CCCOC(=O)C(O)(c1ccccc1)c1ccccc1 | inactive: -8.73% |
| COc1ccccc1-c1ccccn1.O=[N+]([O-])c1cc([N+](=O)[O-])c(O)c([N+](=O)[O-])c1 | inactive: -1.2% |
| O=[N+]([O-])c1cc([N+](=O)[O-])c(Nc2cccnc2)c([N+](=O)[O-])c1 | inactive: -5.1% |
| Cc1cccc(C)c1OP(C)(N)=O (configuration not stated) | inactive: -7.53% |
| CC(C)(C)c1ccc(OP(C)(=O)Nc2ccc(SC(F)(F)F)cc2)cc1 (configuration not stated) | inactive: -0.605% |
| O=[N+]([O-])c1ccc2c(c1)C=Nc1ccccc1O2 | inactive: 1.54% |
| COc1ccccc1OP(C)(=O)Nc1cc(Cl)ccc1C (configuration not stated) | inactive: 3.52% |
| Cc1cc(C)cc(OP(C)(N)=O)c1 (configuration not stated) | inactive: -2.06% |
| COc1ccccc1OP(C)(=O)Nc1ccccc1 (configuration not stated) | inactive: -0.694% |
| CP(=O)(Nc1ccccc1Br)Oc1ccccc1 (configuration not stated) | inactive: 2.72% |
| CP(=O)(Oc1ccccc1)OC(c1ccccc1)C(F)(F)F (configuration not stated) | inactive: -0.705% |
| CP(=O)(Nc1ccc(SC(F)(F)F)cc1)Oc1ccc(Cl)cc1 (configuration not stated) | inactive: -0.317% |
| CCc1ccc(OP(C)(=O)N2CCN(c3ccc([N+](=O)[O-])cc3)CC2)cc1 (configuration not stated) | inactive: 1.81% |
| CP(=O)(NC(=O)Nc1ccccc1)Oc1ccccc1 (configuration not stated) | inactive: -12.9% |
| CCOC(=O)c1ccc(NP(C)(=O)Oc2ccc(OC)cc2)cc1 (configuration not stated) | inactive: -1.63% |
| O=[N+]([O-])c1cc([N+](=O)[O-])c(O)c([N+](=O)[O-])c1.c1ccc(Oc2ccncc2)cc1 | inactive: -16.8% |
| CP(=O)(Nc1ccccn1)Oc1ccc(Cl)cc1 (configuration not stated) | inactive: -0.397% |
| O=[N+]([O-])c1cc([N+](=O)[O-])c(-n2nnc3ccccc32)c([N+](=O)[O-])c1 | inactive: 2.35% |
| CN(Cc1cccnc1)C(=O)COc1ccc(Cl)c(Cl)c1.O=[N+]([O-])c1cc([N+](=O)[O-])c(O)c([N+](=O)[O-])c1 | inactive: 3.24% |
| CCOC(=O)C(CC)C1=NC(C)(C)Cc2ccccc21.O=[N+]([O-])c1cc([N+](=O)[O-])c(O)c([N+](=O)[O-])c1 (configuration not stated) | inactive: -0.464% |
| O=[N+]([O-])c1cc([N+](=O)[O-])c(Nc2nnnn2CCO)c([N+](=O)[O-])c1 | inactive: -5.47% |

| Structure (SMILES) | inhibition |
| --- | --- |
| CN1CCCCC1COC(=O)C1(O)c2ccccc2CCc2ccccc21 (configuration not stated) | inactive: -42.7% |
| CCCOc1ccc(NP(C)(=O)Oc2ccc(Cl)cc2)cc1 (configuration not stated) | inactive: 1.88% |
| COc1ccc(-c2ccccn2)cc1.O=[N+]([O-])c1cc([N+](=O)[O-])c(O)c([N+](=O)[O-])c1 | inactive: 0.126% |
| O=C(O)c1cccc(Nc2c([N+](=O)[O-])cc([N+](=O)[O-])cc2[N+](=O)[O-])c1 | inactive: 4.9% |
| COc1ccccc1OP(C)(=O)Nc1cccc(Br)c1 (configuration not stated) | inactive: 1.75% |
| Cc1cc(C)cc(OP(C)(=O)Nc2ccc(C)cc2C)c1 (configuration not stated) | inactive: -0.263% |
| CCOC(=O)c1ccc(NP(C)(=O)Oc2cc(C)cc(C)c2)cc1 (configuration not stated) | inactive: -4.14% |
| CP(=O)(Nc1cccc(Br)c1)Oc1ccccc1 (configuration not stated) | inactive: -0.188% |
| Cc1cc(C)cc(OP(C)(=O)Nc2ccccn2)c1 (configuration not stated) | inactive: 10.6% |
| O=[N+]([O-])c1cc([N+](=O)[O-])c(Nc2ccc(Cl)cc2)c([N+](=O)[O-])c1 | inactive: -3.94% |
| CC(C)c1ccc(OP(C)(=O)Nc2ccc(SC(F)(F)F)cc2)cc1 (configuration not stated) | inactive: 5.63% |
| CP(=O)(Nc1ccccc1F)Oc1ccccc1 (configuration not stated) | inactive: 7.82% |
| O=C(OCCN1CCN(CCOCc2ccccc2)CC1)C(O)(c1ccccc1)c1ccccc1 | inactive: 0.808% |
| O=C(OC1CN2CCC1CC2)c1ccc([N+](=O)[O-])cc1 (configuration not stated) | inactive: -2.71% |
| COc1ccc2c(c1O)-c1c(O)c(OC)cc3c1[C@H](C2)[N+](C)(C)CC3.O=[N+]([O-])c1cc([N+](=O)[O-])c([O-])c([N+](=O)[O-])c1[O-] | inactive: 1.67% |
| CCN(CC)CCCNc1ccccc1[N+](=O)[O-].O=[N+]([O-])c1cc([N+](=O)[O-])c(O)c([N+](=O)[O-])c1 | inactive: 9.65% |
| COc1ccc(OP(C)(=O)Nc2ccc(SC(F)(F)F)cc2)cc1 (configuration not stated) | inactive: 4.61% |
| Cc1c([N+](=O)[O-])cc([N+](=O)[O-])c(Br)c1[N+](=O)[O-] | inactive: -4.57% |
| O=[N+]([O-])c1cc([N+](=O)[O-])c(OC2CCCCC2O)c([N+](=O)[O-])c1 (configuration not stated) | inactive: 4.06% |
| CCCCCOc1ccc(NP(C)(=O)Oc2ccc(Cl)cc2Cl)cc1 (configuration not stated) | inactive: -5.36% |
| COc1ccc(NP(C)(=O)Oc2ccccc2OC)cc1 (configuration not stated) | inactive: -13.2% |

| Structure (SMILES) | inhibition |
| --- | --- |
| O=[N+]([O-])c1cc([N+](=O)[O-])c(NCC2CCS(=O)(=O)C2)c([N+](=O)[O-])c1 (configuration not stated) | inactive: -1.61% |
| Cc1cc(-c2cccc3ccccc23)c(C)cn1.O=[N+]([O-])c1cc([N+](=O)[O-])c(O)c([N+](=O)[O-])c1 | inactive: 7.1% |
| O=[N+]([O-])c1ccc(OP2(=O)COCCO2)cc1 (configuration not stated) | inactive: 6.9% |
| Cc1c(C(c2ccc3c(c2)OCO3)c2c(C)n(C)n(-c3ccccc3)c2=O)c(=O)n(-c2ccccc2)n1C.O=[N+]([O-])c1cc([N+](=O)[O-])c(O)c([N+](=O)[O-])c1 | inactive: -3.33% |
| CP(=O)(Nc1ccc(SC(F)(F)F)cc1)Oc1ccc(F)cc1 (configuration not stated) | inactive: -4.58% |
| CCOP(=O)(CC)OCC | inactive: 16.8% |
| O=[N+]([O-])c1cc([N+](=O)[O-])c(C(F)(F)F)c([N+](=O)[O-])c1O | inactive: -3.11% |
| CCc1ccc(OP(C)(=O)Nc2cccnc2)cc1 (configuration not stated) | inactive: 1.15% |
| O=C(OCCCN1CCCC1)C(O)(c1ccccc1)C1CCCCC1 (configuration not stated) | inactive: 3.59% |
| COc1ccccc1OP(C)(=O)Nc1ccccc1Br (configuration not stated) | inactive: 1.76% |
| CN(C)C(=O)c1c([N+](=O)[O-])cc([N+](=O)[O-])cc1[N+](=O)[O-] | inactive: 0.559% |
| Nc1ccc2c(ccc3cccnc32)n1.O=[N+]([O-])c1cc([N+](=O)[O-])c(O)c([N+](=O)[O-])c1 | inactive: -0.0595% |
| CCOC(=O)c1ccc(NP(C)(=O)Oc2ccc(Cl)cc2)cc1 (configuration not stated) | inactive: -5.56% |
| Cc1cc(C)cc(OP(C)(=O)Nc2cccc(C(F)(F)F)c2)c1 (configuration not stated) | inactive: -5.35% |
| O=C1C(O)=C([N+](=O)[O-])C(=O)C(O)=C1[N+](=O)[O-] | inactive: -3.02% |
| CP(=O)(OCCOc1ccccc1)OCCOc1ccccc1 | inactive: 2.11% |
| CP(=O)(Nc1ccc(Cl)cc1Cl)Oc1ccccc1 (configuration not stated) | inactive: 0.882% |
| CCCCCCCCCCCCCCCC1C[N+](C)(C)CCOP(C)(=O)O1 (configuration not stated) | inactive: 1.76% |
| COc1ccccc1OP(C)(=O)Nc1ccc(Br)cc1 (configuration not stated) | inactive: -1.69% |
| O=[N+]([O-])c1cc([N+](=O)[O-])c(Nc2ccccn2)c([N+](=O)[O-])c1 | inactive: -0.236% |
